Earlier results on one compound are cited in patent US20230094545A1, “S1P RECEPTOR MODULATORS” (AKAAL PHARMA PTY LTD, priority 2020, published 2023).

Sequences of proteins named here, by UniProt entry; tags and fusion partners are left off.
UniProt P21453, whole entry: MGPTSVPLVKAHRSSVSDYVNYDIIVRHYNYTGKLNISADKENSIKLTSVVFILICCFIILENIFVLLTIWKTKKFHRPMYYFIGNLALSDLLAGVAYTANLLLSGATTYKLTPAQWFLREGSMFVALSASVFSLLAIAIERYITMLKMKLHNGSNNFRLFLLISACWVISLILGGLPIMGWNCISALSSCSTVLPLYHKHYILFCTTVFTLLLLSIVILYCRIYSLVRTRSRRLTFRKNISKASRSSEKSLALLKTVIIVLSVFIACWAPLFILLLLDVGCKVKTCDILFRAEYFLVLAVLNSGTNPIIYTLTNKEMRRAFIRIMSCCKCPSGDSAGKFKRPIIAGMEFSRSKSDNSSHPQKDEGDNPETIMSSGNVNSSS

The series has as its target S1P1 receptor (Homo sapiens, UniProt P21453). As to conditions: Lucas et al; read-out: EC50 at S1P1 receptor in a GTPγS assay; cited from earlier work.

Regarding `CCCCCCCCc1ccc(CCC(N)(CO)CO)cc1` [FTY720], the EC50 (in general, the midpoint of the concentration-response curve) is 2 nM.
